## Apparent affinities of Ab-14 variants for a coronavirus HR2 peptide

Binding partner: SARS-CoV-2 spike HR2 peptide, sequence PDVDLGDISGINAS.

Parent scFv Ab-14: VH joined to VL by a (GGGGS)3 linker. Changes lie in the light chain CDRs alone.
VH: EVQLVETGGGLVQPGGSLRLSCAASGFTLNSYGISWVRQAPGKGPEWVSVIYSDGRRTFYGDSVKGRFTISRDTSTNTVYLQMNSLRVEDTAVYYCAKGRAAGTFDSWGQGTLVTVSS
VL: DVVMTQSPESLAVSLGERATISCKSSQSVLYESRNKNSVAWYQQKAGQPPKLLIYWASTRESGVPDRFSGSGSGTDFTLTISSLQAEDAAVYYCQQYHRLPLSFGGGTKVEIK

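The parent was found by panning a naive human phage display library on the peptide. These sequences belong to a second round, designed from the earlier measurements on random variants of the parent. Their group label is 14L_En_Gibbs (En: ensemble of fine-tuned language models; Gibbs: Gibbs sampling). The scFvs were displayed on barcoded MATa yeast, the peptide on MATalpha yeast. The frequency of each diploid, read from paired DNA barcodes, reflects how well the two displayed proteins bind. The ratio of observed to expected reads was calibrated, replicate by replicate, on BCL2-family standards whose Kd was known from biolayer interferometry. There are six technical replicates.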

Variants are written as CDR1, CDR2 and CDR3 of the light chain (limits as in the source). Parent: KSSQSVLYESRNKNSVA, WASTRES, QQYHRLPLS. Scale: log10 of Kd in nM, estimated from mating counts; low values are strong binders. An entry "nd" has no value in the source: the pair was not observed among the diploids in that replicate. This suggests poor binding but is not conclusive. The authors averaged sequences with at least three values out of six and counted those with two or fewer as poor binders. The parent sequence was in this pool as ten entries: three were never detected, three once, and four in most replicates, with averages from 0.34 to 2.37. Values of this round are not directly comparable with the first-round values of the same sequences. Background: pairings of all light chain designs with three empty control strains gave a value in 4% of cases (median 2.64, 5th percentile 1.59). Values in that range, when seen in few replicates, are hard to tell from nonspecific mating. For each scFv, signals with the empty controls are counted beside the result, with their mean in brackets.

CDR-L1	CDR-L2	CDR-L3	log10 Kd, replicates	signal with controls
KIYQLGLGSQKIMRNIA	ETSTRCL	QSYQRLPLS	1.21 0.82 0.89 0.59 0.65 0.91	1/18 (2.35)
KMMLSLGESKQSEDNVA	NMRVSVA	QQYDHLPLT	2.07 nd 1.68 nd nd 2.35	0/18
ILMQPYKEPGAAVNNIA	DGSIRLQ	QQYHRLPLV	0.62 0.25 0.34 0.34 0.31 0.35	1/18 (2.08)
KLRLHNLMFYENENSIA	GVSNRAY	QQYYRLPLN	1.00 1.05 1.11 1.02 1.30 1.70	1/18 (2.20)
KMNMAVSQDLMDEQSVA	DHMTEVT	QQYGRLPLS	nd nd nd nd nd nd	4/18 (2.71)
KLDSAEQHGTAQNSAMA	SASVSTQ	QQYSRLPLS	1.33 -0.28 -0.44 -0.10 0.09 0.45	0/18
KFDMHIPYQGEQNASIA	GTTNRLT	QQYFKLPLS	1.16 0.95 0.42 0.63 0.64 0.68	0/18
HLYTENYTQKNRTNAIA	DARERVQ	QQYSRLPIM	1.16 1.05 1.36 0.77 1.23 1.03	0/18
KLYERGEESSKVDRSIA	EMSTRQE	QSYQRLPLS	1.17 0.81 0.63 0.76 0.63 1.08	2/18 (2.69)
LMNERMMMGENQQHNIA	NAATLVK	QQYHRLPLG	-0.08 -0.24 -0.23 -0.10 -0.22 -0.04	1/18 (1.58)
FLQAFGEESNRNSKNIA	SKDTRQV	QQYMRLPLS	0.29 0.08 -0.07 0.04 0.04 0.01	3/18 (2.99)
SLMNLMGGIEQMKNSIA	NLELGAR	QQYAHLPLV	nd nd nd nd nd nd	0/18
QLGHYKHENMAKWQNIA	DMTIREK	QQYAHLPLA	0.85 1.12 1.53 0.39 0.80 1.60	0/18
YVSGQIDEGWNQQEAIA	HVSYKED	QQYYKLPLS	nd nd nd nd nd nd	2/18 (2.36)
KMHTLMYTANIGENSVA	DANLHVD	QQYFRLPIS	1.08 1.67 1.70 0.72 1.40 0.76	0/18
MIEIIQDGYDEMRSAIA	DTNLVRM	QQYYRLPLM	nd nd nd 0.94 nd 0.79	0/18
RFEDHISEKEGRHNSIA	EEHMRLD	QYYGRLPLA	nd nd 2.43 1.34 1.38 1.76	1/18 (3.00)
KINGVLINNTIDMNAIA	QEHISVL	QQYFHLPLS	nd nd 1.69 nd nd nd	0/18
VLMGWGADSIQHANSIA	DVDLVDM	QQYAHLPLS	1.38 2.83 1.89 1.60 1.44 1.96	0/18
VIDAFNFSNGEKWNNIA	QDSVRLQ	QSYQRLPLA	nd nd nd nd nd nd	1/18 (1.85)
MLRFDITDGQKNWNAIA	ETSELGA	QQYMHLPLG	nd nd 1.08 1.58 nd nd	0/18
QIAMEMYHDLNDAQNVA	DAMTCIP	QQYSRLPLS	nd nd nd nd nd 1.16	0/18
QLRDEQWAEGMNIQSIA	ENEVSKD	QQYNRLPLS	nd 2.04 2.68 nd nd 2.09	1/18 (2.80)
KITFQGMLSDAHQYSIA	QTNVYSQ	QQYNRLPLD	nd nd nd nd nd nd	0/18
RLHEYFYMPENWNNSIA	EKDYRAR	QQYYRLPLA	nd nd nd nd nd nd	0/18
QLMEEQSMRTEAQRSIA	QGEQKVH	QQYFRLPLA	0.51 0.41 0.54 0.45 0.93 0.87	1/18 (2.23)
KLKIEVIDNQQLRNSIA	ENELRAM	QQYLSLPLS	1.17 1.46 1.04 1.68 2.10 2.55	0/18
FITYQQDQTGLQRNAIA	QVNLKEN	QQYGRLPFA	nd nd nd nd nd nd	1/18 (1.26)
RLYNQFTEQIQHANSIA	DRDEVDS	QQYAHLPLS	1.53 2.51 1.42 1.94 1.53 1.22	0/18
QFAGAMYGGGNDWSNIA	EAMTYIK	QQYSRLPLI	nd nd nd nd nd nd	0/18
QINVNRLMNYLHNNAIA	GKTLRVD	QQYARLPLS	0.81 0.33 0.51 0.60 0.81 0.77	0/18
MITAVMYAYNESFSSIA	DKTISVN	QQYDRLPLL	nd nd nd nd nd nd	0/18
ILTGMLNPAGQQQHSIA	HGGIKIE	QQYNRLPLA	0.76 0.45 0.41 0.99 0.54 1.12	1/18 (2.68)
AEDHQEGSGQNSDANVA	QAEQRAP	QQYHHLPLM	0.67 1.21 1.24 1.20 1.26 1.68	1/18 (2.30)
KFQIGFNQGHSMEHNIA	EGTYAEE	QQYARLPLQ	0.01 0.13 -0.31 0.72 0.30 nd	0/18
SFHEVNFEGLAQTANVA	NASYLFE	QQYFRLPLT	0.88 1.03 0.89 0.84 0.72 1.14	3/18 (2.71)
KIELSNSVSLRGTRAIA	QGSERAH	QQYHRLPLT	0.14 -0.21 0.14 0.06 -0.05 0.09	1/18 (3.67)
RMNKHMSGATEAKNSMA	GVEHRAN	QQYDRLPLS	0.65 0.31 0.51 0.57 0.20 0.57	1/18 (2.18)
QLDWYNTYATASASNIA	DVAQRAN	QQYMRLPLM	-0.16 -0.31 -0.54 -0.65 -0.51 -0.31	1/18 (2.60)
HINEVDPGVKNHYNNIA	DISEAAI	QQYFQLPLS	1.53 0.56 1.82 -0.01 0.55 0.30	0/18
ALELEEMQMMKDINSIA	NTEYKTR	QQYVRLPIS	1.06 1.32 0.63 1.96 1.72 1.09	0/18

The first 6 entries again:

| CDR-L1 | CDR-L2 | CDR-L3 | log10 Kd, replicates | signal with controls |
|---|---|---|---|---|
| KIYQLGLGSQKIMRNIA | ETSTRCL | QSYQRLPLS | 1.21 0.82 0.89 0.59 0.65 0.91 | 1/18 (2.35) |
| KMMLSLGESKQSEDNVA | NMRVSVA | QQYDHLPLT | 2.07 nd 1.68 nd nd 2.35 | 0/18 |
| ILMQPYKEPGAAVNNIA | DGSIRLQ | QQYHRLPLV | 0.62 0.25 0.34 0.34 0.31 0.35 | 1/18 (2.08) |
| KLRLHNLMFYENENSIA | GVSNRAY | QQYYRLPLN | 1.00 1.05 1.11 1.02 1.30 1.70 | 1/18 (2.20) |
| KMNMAVSQDLMDEQSVA | DHMTEVT | QQYGRLPLS | nd nd nd nd nd nd | 4/18 (2.71) |
| KLDSAEQHGTAQNSAMA | SASVSTQ | QQYSRLPLS | 1.33 -0.28 -0.44 -0.10 0.09 0.45 | 0/18 |

Data: MIT Lincoln Laboratory AlphaSeq set, Li et al. 2023, doi:10.1038/s41467-023-39022-2, as distributed in FLAb.